We go through 2 molecules from paper PMC3988658 (Pathogens and disease, 2014).

Series [1] concerns Human hepatocellular carcinoma (HepG2) cells.
A short description of the next series: in vitro. The following applies: human, CC50 (μM).

`COc1ccc(C[C@H]2NC[C@H](O)[C@H]2OC(C)=O)cc1` [Compound 2, Anisomycin]: the CC50 in series [1] is under 1.56 µM; in the series “in vitro”, 0.82 µM. In “in vitro”, `CC(=O)O[C@@H]1C[C@H]2O[C@@H]3C=C(C)CC[C@]3(C)[C@]1(C)[C@]21CO1` [Compound 1, Trichoderonin] yielded a CC50 of under 1.56 µM.
